Laboratory results reported in US6486310B1, “Gene encoding the rat dopamine D4 receptor” (Washington University, priority 1993, dated 2002).

How the values were obtained:
[1] = test system: D2A444 transfected MN9D cells
[2] = test system: D3 transfected MN9D cells
[3] = test system: D4 transfected MN9D cells

With `CCCN1CCC[C@@H]2Cc3n[nH]cc3C[C@H]21` [quinpirole] the “Branch Number per cell (μm)” value (MN9D cells) was “.63 ± .12 μm”, the “Neurite Number per Cell (μm)” value (MN9D cells) was 4.25 ± .23 μm and the “Primary Neuritic Length (μm)” value (MN9D cells) was 22.94 ± 2.01 μm. The “Total Neuritic Length (μm)” value (MN9D cells) was 63.29 ± 4.39 μm, the “effect on neuritic outgrowth (in words)” value (MN9D cells) was “no increases in neuritic outgrowth with the exception of the neurite number” and the “Branch Number per cell (μm)” value [1] was 2.35 ± .35 μm. For the same compound, the “Neurite Number per Cell (μm)” value [1] was 4.72 ± .23 μm, the “Primary Neuritic Length (μm)” value [1] was 30.09 ± 2.02 μm and the “Total Neuritic Length (μm)” value [1] was 104.48 ± 8.95 μm. For the same compound, the “effect on neurite branching and extension (in words)” value [1] was “four fold increase in the frequency of branching of neurites with little effect on neurite extension”, the “Branch Number per cell (μm)” value [2] was 3.51 ± .34^+ μm and the “Neurite Number per Cell (μm)” value [2] was 4.64 ± .26 μm. The “Primary Neuritic Length (μm)” value [2] was 54.24 ± 6.69 μm, the “Total Neuritic Length (μm)” value [2] was 157.77 ± 13.94^+ μm and the “effect on neurite branching and length (in words)” value [2] was “increases in neurite branching and neurite length”. For the same compound, the “Branch Number per cell (μm)” value [3] was 2.10 ± .29 μm, the “Neurite Number per Cell (μm)” value [3] was 4.12 ± .23 μm and the “Primary Neuritic Length (μm)” value [3] was 59.82 ± 6.7 μm. The “Total Neuritic Length (μm)” value [3] was 140.53 ± 13.56 μm and the “effect on neurite branching and extension (in words)” value [3] was “small increase in neurite branching and a large increase in neurite extension”.
